Sequences of proteins named here, by UniProt entry; tags and fusion partners are left off.
UniProt O14920, whole entry: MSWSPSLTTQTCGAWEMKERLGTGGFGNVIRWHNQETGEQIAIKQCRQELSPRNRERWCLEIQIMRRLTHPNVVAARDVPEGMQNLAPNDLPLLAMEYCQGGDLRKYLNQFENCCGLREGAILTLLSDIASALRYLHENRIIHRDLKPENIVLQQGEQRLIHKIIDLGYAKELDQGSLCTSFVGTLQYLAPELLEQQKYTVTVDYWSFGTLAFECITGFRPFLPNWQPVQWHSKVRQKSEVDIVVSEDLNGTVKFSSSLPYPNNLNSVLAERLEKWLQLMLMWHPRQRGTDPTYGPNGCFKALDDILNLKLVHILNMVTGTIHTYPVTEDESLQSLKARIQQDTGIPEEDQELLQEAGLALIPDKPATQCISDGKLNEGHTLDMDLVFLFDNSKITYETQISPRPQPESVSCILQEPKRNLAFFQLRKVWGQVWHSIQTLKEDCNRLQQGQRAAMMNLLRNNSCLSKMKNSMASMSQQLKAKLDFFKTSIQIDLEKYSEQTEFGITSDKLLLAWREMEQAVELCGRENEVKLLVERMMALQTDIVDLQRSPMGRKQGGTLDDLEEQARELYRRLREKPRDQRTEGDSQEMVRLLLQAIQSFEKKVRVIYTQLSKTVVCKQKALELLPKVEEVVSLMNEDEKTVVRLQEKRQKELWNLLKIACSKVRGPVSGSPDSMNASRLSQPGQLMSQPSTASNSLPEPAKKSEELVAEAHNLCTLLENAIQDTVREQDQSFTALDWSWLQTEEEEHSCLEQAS
UniProt O15111, whole entry: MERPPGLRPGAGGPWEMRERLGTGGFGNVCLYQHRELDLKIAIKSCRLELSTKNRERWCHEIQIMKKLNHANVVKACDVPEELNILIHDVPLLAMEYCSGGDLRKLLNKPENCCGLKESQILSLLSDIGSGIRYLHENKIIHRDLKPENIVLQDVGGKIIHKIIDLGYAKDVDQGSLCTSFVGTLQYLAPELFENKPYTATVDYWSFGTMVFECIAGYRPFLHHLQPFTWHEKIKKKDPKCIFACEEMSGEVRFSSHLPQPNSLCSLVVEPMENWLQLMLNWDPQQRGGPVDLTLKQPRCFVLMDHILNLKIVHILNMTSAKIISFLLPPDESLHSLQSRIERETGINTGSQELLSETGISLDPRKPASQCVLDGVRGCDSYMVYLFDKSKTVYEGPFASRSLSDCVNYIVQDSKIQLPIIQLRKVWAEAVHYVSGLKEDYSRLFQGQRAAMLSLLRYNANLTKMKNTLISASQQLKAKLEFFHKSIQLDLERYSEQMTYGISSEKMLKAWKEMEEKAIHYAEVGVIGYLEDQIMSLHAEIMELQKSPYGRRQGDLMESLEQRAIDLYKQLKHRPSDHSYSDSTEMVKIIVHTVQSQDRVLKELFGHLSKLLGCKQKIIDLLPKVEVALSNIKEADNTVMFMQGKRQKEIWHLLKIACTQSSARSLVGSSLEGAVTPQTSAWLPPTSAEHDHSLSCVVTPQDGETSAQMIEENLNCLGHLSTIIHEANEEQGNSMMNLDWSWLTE
UniProt Q9Y6K9, whole entry: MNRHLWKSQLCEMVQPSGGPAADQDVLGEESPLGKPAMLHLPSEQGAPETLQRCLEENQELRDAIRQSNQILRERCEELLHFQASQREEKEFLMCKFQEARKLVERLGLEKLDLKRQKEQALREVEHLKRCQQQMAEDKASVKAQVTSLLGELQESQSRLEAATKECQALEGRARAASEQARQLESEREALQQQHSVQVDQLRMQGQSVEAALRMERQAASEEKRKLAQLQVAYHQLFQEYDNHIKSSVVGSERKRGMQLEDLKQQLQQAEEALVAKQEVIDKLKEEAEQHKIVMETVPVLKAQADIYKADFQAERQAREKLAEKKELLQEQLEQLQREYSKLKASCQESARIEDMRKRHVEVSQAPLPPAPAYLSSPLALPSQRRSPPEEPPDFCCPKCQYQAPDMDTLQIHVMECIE

In patent US20060194819A1, “Activation specific inhibitors of nf-kb and method of treating inflammatory processes in cardio-vascular diseases” (PROCORDE GMBH, priority 2003, published 2006):

Biological target: IKK-complex (Homo sapiens, UniProt O14920+O15111+Q9Y6K9)
Experiment: Cellular IKK kinase assay: HeLa cells treated with compound, TNF alpha stimulation, IKK-complex immunoprecipitated with anti-NEMO-antibody, I kappaB peptide phosphorylation by alpha screen
Details: read-out: IC50 for inhibition of IKK-activity (I kappaB peptide phosphorylation), compound 1 h, TNF alpha 20 ng/ml
Protocol: Kinase Assay Protocol: HeLa cells were maintained in Dulbecco's modified Eagle's medium (Invitrogen) supplemented with 10% fetal bovine serum, 2 mM L-glutamine, penicillin (50 units/ml) and streptomycin (50 μg/ml). 24 h before treatment with different compounds HeLa cells were plated at a density of 5×10^6 per well in 100-mm cell culture dishes to 90% confluences.
The cells were incubated with different drugs at the concentration indicated for 1 h, washed twice with PBS and stimulated with 20 ng/ml TNF alpha (Roche). After 7 min the cells were washed twice with ice cold PBS followed by scraping and transferring into a 1.5 ml microcentrifuge tube. […] 6.6 μl of detection-buffer (20 mM Hepes pH 7.5, 100 mM NaCl, 1% Tween, 0.1 mM BSA, 50 μg/ml Protein A-Acceptor beads, 250 μg/ml Streptavidin-Donor beads (both Perkin-Elmer), 4 nM anti-phospho-IKB antibody (Santa Cruz Biotechnology) was dispensed to each well. After incubation for 1.5 h the plate was measured by alpha screen reader (Perkin Elmer). […]

CCOC(=O)C1=C(C)N=c2sc(=Cc3ccc(-c4cccc(C(=O)O)c4)o3)c(=O)n2C1c1cc(OC)c(OC)cc1Br (stereo not shown)
IC50: 8 µM
